Experimental data reported in ChEMBL document CHEMBL1149477, “Monocyclic thiophenes as protein tyrosine phosphatase 1B inhibitors: capturing interactions with Asp48” (Bioorg Med Chem Lett, 2006).

Molecular target: T1, Tyrosine-protein phosphatase non-receptor type 1 (Homo sapiens, UniProt P18031)
T1 sequence (P18031 whole entry): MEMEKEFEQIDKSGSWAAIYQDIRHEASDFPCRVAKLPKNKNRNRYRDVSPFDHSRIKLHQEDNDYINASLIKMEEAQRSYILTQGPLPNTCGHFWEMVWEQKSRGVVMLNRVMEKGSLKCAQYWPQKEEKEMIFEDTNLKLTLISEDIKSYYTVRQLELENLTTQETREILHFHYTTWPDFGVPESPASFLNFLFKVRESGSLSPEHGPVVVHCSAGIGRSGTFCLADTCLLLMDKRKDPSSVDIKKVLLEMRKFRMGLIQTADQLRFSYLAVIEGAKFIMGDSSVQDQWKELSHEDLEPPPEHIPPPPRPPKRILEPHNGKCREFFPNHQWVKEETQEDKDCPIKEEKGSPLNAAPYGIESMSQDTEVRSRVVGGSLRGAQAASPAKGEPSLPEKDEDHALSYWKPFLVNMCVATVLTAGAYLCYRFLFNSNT
Assay: Inhibition of PTP1B

| SMILES | Ki |
| --- | --- |
| O=C(O)COc1c(C(=O)O)sc(-c2ccc(O)cc2)c1Br | 0.3 µM |
| O=C(O)COc1c(Br)csc1C(=O)O | 160 µM |
